For the experiment, the target named is Coagulation factor X (Homo sapiens, UniProt P00742). Kind of experiment: Inhibitory concentration against human Coagulation factor X.

The chains behind the UniProt entries cited, without tags or fusion partners. Residues count along the entry.
UniProt P00742, 41-179 limits assumed: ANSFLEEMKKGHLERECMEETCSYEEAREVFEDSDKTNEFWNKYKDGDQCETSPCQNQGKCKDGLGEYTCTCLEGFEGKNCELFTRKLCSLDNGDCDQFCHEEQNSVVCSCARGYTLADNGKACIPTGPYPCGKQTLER
UniProt P00742, 235-488 limits assumed: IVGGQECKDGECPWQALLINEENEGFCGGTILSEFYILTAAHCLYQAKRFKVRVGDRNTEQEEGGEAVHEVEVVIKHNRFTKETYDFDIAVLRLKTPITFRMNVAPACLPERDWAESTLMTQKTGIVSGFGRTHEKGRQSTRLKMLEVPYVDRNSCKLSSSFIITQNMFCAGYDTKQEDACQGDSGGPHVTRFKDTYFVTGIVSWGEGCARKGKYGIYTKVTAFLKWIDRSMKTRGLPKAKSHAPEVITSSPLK

Structures are written as SMILES.

A word on the IC50: it is the concentration that inhibits the measured activity by half. The compound `CC(C)Nc1ccc(-c2cc(N)cc(N)c2)n(CC(=O)NCc2ccc(C(=N)N)cc2)c1=O` came in with an IC50 above 30 µM.

The record behind these values is ChEMBL document CHEMBL1145137, “Design, synthesis, and crystal structure of selective 2-pyridone tissue factor VIIa inhibitors” (J Med Chem, 2003).
